Test results taken from EP1077966B1, “BIPHENYL SULFONYL ARYL CARBOXYLIC ACIDS USEFUL IN THE TREATMENT OF INSULIN RESISTANCE AND HYPERGLYCEMIA” (Wyeth, priority 1998, dated 1999).

By UniProt entry, the sequences of proteins in these tests, tags left out. Where a name states a change or a piece, a line headed by the entry shows the natural chain unless it says otherwise.
UniProt P18031: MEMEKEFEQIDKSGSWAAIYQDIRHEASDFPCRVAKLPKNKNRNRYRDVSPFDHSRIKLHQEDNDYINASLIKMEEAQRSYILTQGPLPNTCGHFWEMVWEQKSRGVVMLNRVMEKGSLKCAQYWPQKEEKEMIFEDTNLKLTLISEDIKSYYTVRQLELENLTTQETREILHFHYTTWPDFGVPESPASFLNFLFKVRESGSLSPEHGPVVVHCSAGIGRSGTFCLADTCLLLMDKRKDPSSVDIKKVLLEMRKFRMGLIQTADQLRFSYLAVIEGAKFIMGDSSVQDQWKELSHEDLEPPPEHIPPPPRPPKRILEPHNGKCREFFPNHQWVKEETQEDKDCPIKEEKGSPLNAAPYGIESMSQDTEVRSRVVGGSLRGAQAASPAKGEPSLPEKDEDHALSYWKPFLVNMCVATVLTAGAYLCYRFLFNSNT

Biological target: Human recombinant PTP1B (Homo sapiens, UniProt P18031)
Test: Inhibition of tri-phosphorylated insulin receptor dodecaphosphopeptide dephosphorylation by hPTP1B (malachite green-ammonium molybdate phosphate detection)
Format: biochemical
Details: substrate phosphotyrosyl dodecapeptide TRDIYETDYYRK (insulin receptor 1142-1153), 37°C, 30 min, pH 7.4

Ammonium molybdate tetrahydrate
IC50: 8.7 µM
